Laboratory results reported in article PMC6934599, “Phenoxyethyl Piperidine/Morpholine Derivatives as PAS and CAS Inhibitors of Cholinesterases: Insights for Future Drug Design” (Scientific Reports, 2019).

By UniProt entry, the sequences of proteins in these tests, tags left out.
UniProt P81908, whole entry: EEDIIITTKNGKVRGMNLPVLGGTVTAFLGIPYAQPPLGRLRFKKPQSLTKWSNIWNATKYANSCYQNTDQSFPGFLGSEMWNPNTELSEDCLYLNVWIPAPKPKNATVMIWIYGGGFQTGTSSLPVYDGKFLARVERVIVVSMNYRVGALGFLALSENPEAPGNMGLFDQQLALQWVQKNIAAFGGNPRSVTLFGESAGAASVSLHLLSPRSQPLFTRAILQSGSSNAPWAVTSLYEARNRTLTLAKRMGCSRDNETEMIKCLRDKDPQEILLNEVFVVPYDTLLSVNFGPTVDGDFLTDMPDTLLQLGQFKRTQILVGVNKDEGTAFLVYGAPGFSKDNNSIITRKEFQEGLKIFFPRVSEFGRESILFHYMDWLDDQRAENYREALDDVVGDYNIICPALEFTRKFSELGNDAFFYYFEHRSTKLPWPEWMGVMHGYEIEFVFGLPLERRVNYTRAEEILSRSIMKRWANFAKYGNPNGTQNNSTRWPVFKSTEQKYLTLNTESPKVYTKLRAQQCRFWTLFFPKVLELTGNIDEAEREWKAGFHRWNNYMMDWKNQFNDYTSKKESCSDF

Each molecule was assayed against BuChE (E.C.3.1.1.8, from equine serum) (Equus caballus, UniProt P81908). Settings: read-out: eqBuChE IC50.

Going from `N#CC1=C(N)Oc2c(c(=O)oc3ccccc23)C1c1ccc(OCCN2CCCCC2)cc1` (stereo not shown) to `N#CC1=C(N)Oc2c(c(=O)oc3ccccc23)C1c1ccc(OCCN2CCOCC2)cc1` (stereo not shown), the IC50 rises from 61.7 µM to greater than 100 µM.

Compared with `N#CC1=C(N)OC2=C(C(=O)CCC2)C1c1ccc(OCCN2CCOCC2)cc1` (stereo not shown), `CC1(C)CC(=O)C2=C(C1)OC(N)=C(C#N)C2c1ccc(OCCN2CCOCC2)cc1` (stereo not shown) is higher in IC50: 68.9 µM for the first, greater than 100 µM for the second.

`Cc1cc2c(c(=O)o1)C(c1ccc(OCCN3CCCCC3)cc1)C(C#N)=C(N)O2` (stereo not shown) [7e, 2-Amino-7-methyl-5-oxo-4-(4-(2-(piperidin-1-yl)ethoxy)phenyl)-4H,5H-pyrano[4,3-b]pyran-3-carbonitrile] and `Cc1cc2c(c(=O)o1)C(c1ccc(OCCN3CCOCC3)cc1)C(C#N)=C(N)O2` (stereo not shown) [7f, 2-Amino-7-methyl-4-(4-(2-morpholinoethoxy)phenyl)-5-oxo-4H,5H-pyrano[4,3-b]pyran-3-carbonitrile] cannot be ordered by IC50: greater than 100 µM for the first, greater than 100 µM for the second.

Compared with `COC(=O)/C(C#N)=C/c1ccc(OCCN2CCCCC2)cc1` [5c], `O=Cc1ccc(OCCN2CCCCC2)cc1` is lower in IC50: greater than 100 µM for the first, 71.3 µM for the second. The second is the more potent here.

`O=Cc1ccc(OCCN2CCOCC2)cc1` [3b, 4-(2-morpholinoethoxy)benzaldehyde] and `N#CC(C#N)=Cc1ccc(OCCN2CCOCC2)cc1` [5b] cannot be ordered by IC50: greater than 100 µM for the first, greater than 100 µM for the second.
